Laboratory results as given in PubChem BioAssay AID2066 (NMMLSC, 2009).
Only a part is listed here, and it is no random draw. Some results for these compounds are left out of this collection, so the calls shown say nothing about other tests. Active and inactive are the calls of the source.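 Rule for the calls: active = GFP response relative to DMSO above a set limit, near screen average plus 3 SD (cut at about 150% in these data); inconclusive = fewer than 70 cells counted for the yeast strain; inactive = the rest.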

Assay: modulators of AGP1-GFP expression in yeast TOR pathway, primary screen, cell-based, multiplex flow cytometry, S. cerevisiae, MLPCN library (AID 2066);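 note: median GFP channel fluorescence of the gated AGP1 strain per well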
Conditions: 3 h, at 10 µM, stronger effect = higher value, GFP as percent of DMSO wells

| SMILES | GFP response vs DMSO |
| --- | --- |
| O=C(NCC1(N2CCCCC2)CCCCC1)c1cc(F)c(F)cc1Cl | inactive: 96.6% |
| C=CCN1CCN(CCOC(=O)C(O)(c2ccccc2)c2ccccc2)CC1 | inactive: 99% |
| COc1ccc(C(=O)NCC2(N(C)C)CCCCC2)cc1 | inactive: 96.2% |
| O=C(NCC1(N2CCCCC2)CCCCC1)c1cccc(Br)c1 | inactive: 103% |
| CCN1CCCC(OC(=O)C2(O)c3ccccc3C=Cc3ccccc32)C1 (stereo not drawn) | inactive: 92.4% |
| CN(C)C1CCCC1OC(=O)C(O)(c1ccccc1)c1ccccc1 (stereo not drawn) | inactive: 113% |
| CN(C)c1ccc(C(=O)NCC2(N(C)C)CCCCC2)cc1 | inactive: 102% |
| Cc1ccccc1C(=O)NCC1(N2CCCCC2)CCCCC1 | inactive: 101% |
| COc1cc(SC)ccc1C(=O)NCC1(N(C)C)CCCCC1 | inactive: 74.5% |
| CCN(CC)CC(C)C(C)OC(=O)C(O)(c1ccccc1)c1ccccc1 (stereo not drawn) | inactive: 97.4% |
| CC(C)N1C(=O)CC2(CCN(CCOC(=O)C(O)(c3ccccc3)c3ccccc3)CC2)C1=O | inactive: 103% |
| Cc1ccc(C(=O)NCC2(N3CCCCC3)CCCCC2)cc1 | inactive: 103% |
| O=C(NCC1(N2CCCCC2)CCCCC1)c1cc([N+](=O)[O-])ccc1Cl | inactive: 96.6% |
| CN1[C@@H]2CC[C@H]1CC(OC(=O)C(O)(c1ccccc1)c1ccccc1)C2 (stereo partly drawn) | inactive: 96.2% |
| COc1ccc(Br)c(C(=O)NCC2(N3CCCCC3)CCCCC2)c1 | inactive: 104% |
| CC(C)Oc1ccc(C(=O)NCC2(N(C)C)CCCCC2)cc1 | inactive: 96.2% |
| CN(C)c1cccc(C(=O)NCC2(N(C)C)CCCCC2)c1 | inactive: 107% |
| O=C(OC1CN2CCC1CC2)C(CO)(c1ccccc1)c1ccccc1 (stereo not drawn) | inactive: 112% |
| COc1ccc(Cl)cc1C(=O)NCC1(N(C)C)CCCCC1 | inactive: 105% |
| COc1cccc(C(=O)NCC2(N3CCCCC3)CCCCC2)c1 | inactive: 102% |
| O=C(NCC1(N2CCCCC2)CCCCC1)c1cccc(Cl)c1 | inactive: 99.2% |
| CN(C)C1(CNC(=O)c2ccc(Br)cc2)CCCCC1 | inactive: 99.6% |
| COc1cc(C(=O)NCC2(N(C)C)CCCCC2)c([N+](=O)[O-])cc1OC | inactive: 95% |
